In publication PMC8640222:

Legend:
[1] = biological target: cell-surface glycoprotein (csg), S-layer protein of Haloferax volcanii (Haloferax volcanii) (UniProt P25062); experiment: cryo-EM structure; cryo-ET and subtomogram averaging of in vitro reconstituted inverted S-layer tubes (purified csg with 15 mM CaCl2); 15.8 Å
[2] = biological target: cell-surface glycoprotein (csg), S-layer protein of Haloferax volcanii (Haloferax volcanii) (UniProt P25062); experiment: cryo-EM structure; cryo-ET and subtomogram averaging (lattice maps) of the S-layer on whole H. volcanii cells
[3] = biological target: cell-surface glycoprotein (csg), S-layer protein of Haloferax volcanii (Haloferax volcanii) (UniProt P25062); experiment: cryo-EM structure; single-particle cryo-EM of two-dimensional S-layer sheets reconstituted from purified csg (3.2 mg/mL) with 15 mM CaCl2, on ice 25 min; 3.5 Å; hexameric repeating unit and lattice interfaces
[4] = biological target: cell-surface glycoprotein (csg), S-layer protein of Haloferax volcanii (Haloferax volcanii) (UniProt P25062); experiment: cryo-EM structure; cryo-ET and subtomogram averaging of the native S-layer on vesicles purified from H. volcanii cultures; hexamer 8.0 Å, pentamer 11.5 Å
[5] = biological target: cell-surface glycoprotein (csg), S-layer protein of Haloferax volcanii (Haloferax volcanii) (UniProt P25062); experiment: as above; remark: listed apart in the source
[6] = biological target: cell-surface glycoprotein (csg), S-layer protein of Haloferax volcanii (Haloferax volcanii) (UniProt P25062); experiment: cryo-EM structure; single-particle cryo-EM of csg pentamers reconstituted from purified csg (2.5 mg/mL) with 1.5-1.75 mM HoCl3, on ice 2 hours; 3.9 Å

“cell-surface glycoprotein (csg), S-layer protein of Haloferax volcanii (from UniProt P25062 35-803) (natural protein)” was tested, and the stoichiometry N [1] was 6, the stoichiometry N [2] was 5 and the stoichiometry N [3] was 6. It also gave a stoichiometry N [4] of 5, a stoichiometry N [5] of 6 and a stoichiometry N [6] of 5.
